Reference: PubChem BioAssay AID1030 (National Center for Advancing Translational Sciences (NCATS), 2008)
This is a selection; strong and weak results do not stand in their true shares. Inconclusive results are not listed. Activity calls are given as the source filed them. Calls follow the shape of the dose curve; as a rule, active = well fitted inhibition curve with a large enough effect (not every such curve was filed as active); inconclusive = small, poorly fitted or top-dose-only effect, or another doubt; inactive = no such curve, though single readings can be large or run the other way.

The chains behind the UniProt entries cited, without tags or fusion partners. Where a name states a change or a piece, a line headed by the entry shows the natural chain unless it says otherwise.
UniProt P00352: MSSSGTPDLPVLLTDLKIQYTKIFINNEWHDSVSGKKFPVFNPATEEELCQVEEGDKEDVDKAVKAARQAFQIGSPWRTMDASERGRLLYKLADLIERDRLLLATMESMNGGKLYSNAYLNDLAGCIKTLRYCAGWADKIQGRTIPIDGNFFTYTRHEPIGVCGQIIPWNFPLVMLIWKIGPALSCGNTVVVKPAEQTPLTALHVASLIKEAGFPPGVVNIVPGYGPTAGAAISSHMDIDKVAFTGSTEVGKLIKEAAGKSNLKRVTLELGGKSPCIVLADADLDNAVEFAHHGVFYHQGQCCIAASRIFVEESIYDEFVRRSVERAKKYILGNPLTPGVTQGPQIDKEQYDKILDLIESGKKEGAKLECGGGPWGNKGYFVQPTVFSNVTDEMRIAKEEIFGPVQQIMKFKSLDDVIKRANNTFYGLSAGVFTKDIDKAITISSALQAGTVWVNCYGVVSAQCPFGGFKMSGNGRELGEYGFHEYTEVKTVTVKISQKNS

biological target: Aldehyde dehydrogenase 1A1 (Homo sapiens) (UniProt P00352); experiment: qHTS Assay for Inhibitors of Aldehyde Dehydrogenase 1 (ALDH1A1); conditions: Purified ALDH1A1, NADH fluorescence, propionaldehyde substrate; series mostly up to 75.3 µM; activity, negative = inhibition: at the top concentration;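 as to activity, negative = inhibition: plate controls were no enzyme wells and a reference inhibitor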
Potency is read from the fitted curve at half-maximal effect.

SMILES	activity, negative = inhibition	Potency
CC(=O)Nc1ccc([As](=O)(O)O)c(O)c1	inactive: 6.53%	
CC(=O)Nc1ccc(Oc2c([N+](=O)[O-])cc([N+](=O)[O-])cc2[N+](=O)[O-])cc1	inactive: -1.71%	
O=P1(Nc2nc3ccc(Cl)cc3s2)COc2ccccc2O1 (centres undefined)	inactive: -3.31%	
CCOc1ccc(C2=NCC(CBr)S2)cc1 (centres undefined)	inactive: 5.58%	
CC(C)(C)C(=O)NC(Sc1ccccc1)C(Cl)(Cl)Cl (centres undefined)	inactive: -1.94%	
COC(=O)c1cc2c(s1)N=C(c1ccccc1)N(C)P2(=O)N1CCOCC1 (centres undefined)	inactive: -6.34%	
CC(=O)NC(SC(=S)N(CC(C)C)CC(C)C)C(Cl)(Cl)Cl (centres undefined)	inactive: -14.8%	
Cc1ccc(OP(=O)(Nc2ccccn2)Oc2ccc(C)cc2)cc1	inactive: 5.75%	
O=c1c2cc([N+](=O)[O-])ccc2[nH]c2c([N+](=O)[O-])cc([N+](=O)[O-])cc12		active: 0.631 µM
CCOC(=O)NC(Sc1ccccc1)C(Cl)(Cl)Cl (centres undefined)	inactive: 3.09%	
CCNC(=S)/N=C(\N)N[N+](=O)[O-]	inactive: 14.2%	
O=C(OC1CN2CCC1CC2)c1cccc(Cl)c1 (centres undefined)	inactive: 13.6%	
O=P(Nc1ccccn1)(c1ccc(Br)cc1)c1ccc(Br)cc1	inactive: 1.56%	
[N-]=[N+]=Nc1ccc([As](=O)(O)O)cc1	inactive: 1.4% [at 13.5 µM]	
CN(C(=O)Cc1ccccc1)[C@H]1CC[C@@]2(CCCO2)C[C@@H]1N1CCCC1	inactive: 4.35%	
O=P(Nc1nc2ccccc2s1)(c1ccccc1)c1ccccc1	inactive: -4.84%	
CN1CCC[C@H](OC(=O)C(c2ccccc2)c2ccccc2)C1	inactive: 1.72% [at 13.5 µM]	
C[C@@H](O)COc1ccc([As](=O)(O)O)cc1N	inactive: -0.236% [at 13.5 µM]	
CC(C)C(=O)NC(Sc1ccccc1)C(Cl)(Cl)Cl (centres undefined)	inactive: 8.17%	
O=P(Nc1nccs1)(c1ccccc1)c1ccccc1	inactive: 7.05%	
c1nnnn1CCn1cnnn1	inactive: 15.9%	
CCN(/C(=N/P(=O)(N1CCOCC1)N1CCOCC1)N1CCOCC1)c1ccc(OC)cc1	inactive: 10.6%	
Nc1ccc([As](=O)(O)c2ccc(N)cc2)cc1	inactive: 4.49%	
O=C(CO)Nc1ccc([As](=O)(O)O)cc1	inactive: 10% [at 13.5 µM]	

SMILES	activity, negative = inhibition	Potency
CC(=O)C1=CCCC2CCC1N2 (centres undefined)	inactive: -16.7%	
CC(C)=N/N=C(\N)N[N+](=O)[O-]	inactive: -6.07%	
CN(C)C(=O)OCCc1n(C)cc[n+]1C	inactive: 12.6%	
CCc1nc2c(n1)c1c(non1O)c1c2no[n+]1[O-]	inactive: -6.31%	
O=[N+]([O-])c1cc([N+](=O)[O-])c(CCNc2ccccc2)c([N+](=O)[O-])c1		active: 11.2 µM
O=[N+]([O-])c1cccc2n[nH]nc12	inactive: 6.28%	
CC(=O)N1C2C3N(C(C)=O)C1C1N(C(C)=O)C(C(N1C(C)=O)N3C(C)=O)N2C(C)=O	inactive: 10.5%	
O=[N+]([O-])c1ncn(CCn2ncnc2[N+](=O)[O-])n1	inactive: 4.02%	
O=C(O)CNc1ccc([As](=O)(O)O)cc1	inactive: 14.9%	
O=C(Nc1cc([As](=O)(O)O)ccc1O)c1ccccc1	inactive: 0.943%	
[N-]=[N+]=NCC(O)CN=[N+]=[N-] (centres undefined)	inactive: -4.9% [at 13.5 µM]	
CCN(N=Nc1nonc1N)c1nonc1N	inactive: 2.98%	
C(Cc1nn[nH]n1)c1nn[nH]n1	inactive: -3.85% [at 13.5 µM]	
CC(=O)Nc1ccc([As](=O)(O)O)cc1	inactive: 5.33%	
O=C(O)c1ccccc1[As](=O)(O)O	inactive: 5.6%	
CCOP(=O)(Nc1ccccc1)OCC	inactive: 12.7%	
CC(C)CC(=O)NC(Sc1ccc(Cl)cc1)C(Cl)(Cl)Cl (centres undefined)	inactive: 3.62%	
NCC[C@@H](N)CSP(=O)(O)O	inactive: -0.604% [at 13.5 µM]	
Cc1ccc(N/C(=N/P(=O)(N2CCOCC2)N2CCOCC2)N2CCOCC2)cc1	inactive: 17%	
CN1CCCC(OC(=O)C(c2ccccc2)c2ccccc2)C1 (centres undefined)	inactive: -15.7%	
Clc1ccc(Cl)c(NC2=NCC(CBr)S2)c1 (centres undefined)		active: 10 µM
COc1ccccc1OP(=O)(Nc1ccc(C)cn1)Oc1ccccc1OC	inactive: 0.722%	
O=[N+]([O-])c1ccc(C[As](=O)(O)O)cc1	inactive: 16.7% [at 13.5 µM]	
COc1ccc(N/C(=N/P(=O)(N2CCOCC2)N2CCOCC2)N2CCOCC2)cc1	inactive: 6.9%	

SMILES	activity, negative = inhibition	Potency
c1ccc(P(c2ccccc2)c2ccccc2)cc1	inactive: 14.8%	
Cc1c2c(nc3ccccc13)SC(C(Cl)Cl)C2 (centres undefined)	inactive: 7.23%	
O=C(OC1CN2CCC1CC2)C12CC3CC(CC(C3)C1)C2 (centres undefined)	inactive: -8.25%	
Cc1cc(=O)[nH]c(N[N+](=O)[O-])n1	inactive: 8.21%	
COc1ccc2nc(NP(=O)(c3ccccc3)c3ccccc3)sc2c1	inactive: 5.34%	
NC(=O)Nc1cc([As](=O)(O)O)cc(I)c1O	inactive: 13.4% [at 13.5 µM]	
ClCCSc1nnc(-c2cccnc2)o1	inactive: -4.23%	
[N-]=[N+]=NCC(N)=O	inactive: 3.09% [at 13.5 µM]	
CC(C)NC(=O)NP(=O)(Oc1ccccc1)Oc1ccccc1	inactive: 1.07%	
CCN(CC)C(=S)SC(NC=O)C(Cl)(Cl)Cl (centres undefined)		active: 31.6 µM
O=[N+]([O-])c1cc([N+](=O)[O-])c(-c2ccn[nH]2)s1	inactive: -10.7%	
C[As](=O)(O)c1cccc(C(=O)O)c1	inactive: 1.89%	
Cc1ccc(OP(=O)(Nc2ccc([N+](=O)[O-])cn2)Oc2ccc(C)cc2)cc1	inactive: 8.1%	
Cc1ccc2nc3c(c(C)c2c1)CC(C(Cl)Cl)S3 (centres undefined)	inactive: -3.61%	
O=P(Nc1ccccn1)(c1cccc2ccccc12)c1cccc2ccccc12	inactive: 5.71%	
Cc1cc(SC(NC=O)C(Cl)(Cl)Cl)ncn1 (centres undefined)		active: 0.631 µM
Cc1cc(SC(NC(=O)c2ccccc2)C(Cl)(Cl)Cl)nc(C(C)C)n1 (centres undefined)		active: 10 µM
O=C(COc1ccccc1)OC1CN2CCC1CC2 (centres undefined)	inactive: 10.2%	
O=C(O)[C@@H](O)c1ccc([As](=O)(O)O)cc1	inactive: 5.88% [at 13.5 µM]	
CC(C)/C=N\N=C(\N)N[N+](=O)[O-]	inactive: 7.35%	
O=[As](O)(c1ccccc1Br)c1ccccc1Br	inactive: -0.993%	
O=P1(Nc2ccccn2)COc2ccccc2OC1	inactive: -4.26%	
CN(CCCl)Cc1cc(Cl)c(NC2=NCCN2)c(Cl)c1	inactive: 12.1%	
Clc1n[nH]nc1-c1nn[nH][15n]1	inactive: -8.11%	

SMILES	activity, negative = inhibition	Potency
CC(C)(C)C(=O)NC(Sc1ncccn1)C(Cl)(Cl)Cl (centres undefined)		active: 20 µM
O=P1(Nc2ncccn2)COc2ccccc2OC1	inactive: 3.58%	
Cc1ccc(OCC(=O)OC2CN3CCC2CC3)cc1 (centres undefined)	inactive: 15.3%	
Cc1nn(-c2ccccc2)c2c1P(=O)(N1CCOCC1)N(C)C(c1ccccc1)=N2 (centres undefined)		active: 10 µM
CN(C)C1(CNC(=O)c2ccc(S(C)(=O)=O)cc2)CCCCC1	inactive: 2.98%	
O=C(/C=C/c1ccccc1)OC1CN2CCC1CC2 (centres undefined)	inactive: 9.24%	
NC(=O)Nc1ccc([As](=O)(O)O)cc1	inactive: 5.4% [at 20.9 µM]	
O=[N+]([O-])CC(O)c1ccc([N+](=O)[O-])cc1 (centres undefined)		active: 25.1 µM
CCOP1(=S)c2c(C)nn(CCC#N)c2N=C(c2ccc(F)cc2)N1C (centres undefined)		active: 22.4 µM
CN(C(=O)Cc1ccccc1)[C@@H]1CC[C@]2(CCCO2)C[C@H]1N1CCCC1	inactive: -5.8%	
O=[N+]([O-])c1ccc2c(c1)nnn2O	inactive: -0.33%	
CCOP1(=S)c2c(C)nn(CCC#N)c2N=C(c2ccccc2F)N1C (centres undefined)	inactive: 2.59%	
O=P(Nc1nccs1)(Oc1ccccc1)Oc1ccccc1	inactive: 2.79%	
O=P(Nc1nccs1)(c1ccccc1)c1nc2ccccc2s1 (centres undefined)		active: 2.24 µM
CS(=O)(=O)c1cc([N+](=O)[O-])c2no[n+]([O-])c2c1		active: 7.51 µM
O=[As](O)(O)c1ccc([As](=O)(O)O)cc1	inactive: -8.38% [at 13.5 µM]	
NS(=O)(=O)Cc1ccc([As](=O)(O)O)cc1	inactive: 5.68% [at 13.5 µM]	
O=C(CC(=O)c1ccccc1)O[C@H]1CN2CCC1CC2	inactive: 1.14% [at 13.5 µM]	
COc1cc(C2NCCC3(OCCO3)C2(C)C)cc(OC)c1OC (centres undefined)	inactive: 2.66%	
CCOP(=O)(Nc1cccc2ccccc12)OCC	inactive: -10.6%	
Cc1cccc(OCC(=O)OC2CN3CCC2CC3)c1 (centres undefined)	inactive: 0.823%	
O=[As](O)(c1cccc(O)c1)c1cccc(O)c1	inactive: 11.8%	
